Test results as given in PubChem BioAssay AID2472 (National Center for Advancing Translational Sciences (NCATS), 2010).
The list shows a part of the results, in another mix than the full data. Active and inactive are the calls of the source. No stated cut-off is given here; in the data, active means activity change below about -30%; inactive means the rest, inconclusive results apart.

Assay: qHTS Assay for Inhibitors of Fructose-1,6-bisphosphate Aldolase from Giardia Lamblia: Coupling assay counterscreen
Conditions: coupling enzyme system counterscreen, AmpLite Red fluorescence; at 58.2 µM (top of the series)
Summary of the method: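 Final compound at 57.5 uM, incubated 10 min at RT with coupling enzyme reagent (glyceraldehyde-3-phosphate), then 20 min with substrate and AmpLite Red detection. Fluorescence read at 525/598 nm; tests interference with the coupling assay, not aldolase inhibition.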
On the % scale 0 is the no-effect control and ±100 the full control effect.

SMILES	activity change, negative = inhibition
CCOP(=O)(Nc1cccc2ccccc12)OCC	inactive: -0.104%
COc1cc(C2NCCC3(OCCO3)C2(C)C)cc(OC)c1OC (stereo not drawn)	inactive: -0.359%
Nc1cccc2c([As](=O)(O)O)cccc12	inactive: -28.8%
Cc1ccc(NCCc2c([N+](=O)[O-])cc([N+](=O)[O-])cc2[N+](=O)[O-])cc1	inactive: -7.82%
CCCOP(=S)(Nc1nc(N)cc(=O)[nH]1)OCCC	inactive: -1.45%
Cc1cccc(OCC(=O)OC2CN3CCC2CC3)c1 (stereo not drawn)	inactive: -0.715%
O=[As](O)(c1cccc(O)c1)c1cccc(O)c1	inactive: -2.61%
O=C(OC1CN2CCC1CC2)c1ccc(Cl)cc1 (stereo not drawn)	inactive: 1.46%
O=[As](O)(O)c1cccnc1	inactive: 0.48%
COc1cc(C(=O)NCC2(N3CCOCC3)CCCCC2)cc(Cl)c1OC(C)C	inactive: -8.45%
COc1ccc(N/C(=N/P(=O)(N2CCOCC2)N2CCOCC2)N2CCOCC2)cc1	inactive: 3.22%
COc1cc(I)ccc1[As](=O)(O)O	inactive: 1.03%
COc1ccc2nc(NP(=O)(c3ccccc3)c3ccccc3)sc2c1	inactive: -0.174%
Cc1c2c(nc3ccccc13)SC(C(Cl)Cl)C2 (stereo not drawn)	inactive: 0.167%
Cc1cc(=O)[nH]c(N[N+](=O)[O-])n1	inactive: 1.78%
O=C(OC1CN2CCC1CC2)C12CC3CC(CC(C3)C1)C2 (stereo not drawn)	inactive: 4.04%
O=[N+]([O-])c1cc([N+](=O)[O-])c(-c2ccn[nH]2)s1	inactive: -8.55%
CC(C)NC(=O)NP(=O)(Oc1ccccc1)Oc1ccccc1	inactive: -1.68%
CCN(CC)C(=S)SC(NC=O)C(Cl)(Cl)Cl (stereo not drawn)	inactive: 0.445%

SMILES	activity change, negative = inhibition
ClCCSc1nnc(-c2cccnc2)o1	inactive: -3.24%
CC(C)c1ccc(OP(=O)(Nc2ccccn2)Oc2ccccc2F)cc1 (stereo not drawn)	inactive: 0.421%
Cc1ccc(OP(=O)(Nc2ccc([N+](=O)[O-])cn2)Oc2ccc(C)cc2)cc1	inactive: -2.21%
Cc1ccc2nc3c(c(C)c2c1)CC(C(Cl)Cl)S3 (stereo not drawn)	inactive: 0.772%
C[As](=O)(O)c1cccc(C(=O)O)c1	inactive: 0.546%
O=[As](O)(c1ccc(O)cc1)c1ccccc1O	inactive: 0.77%
Cc1cc(SC(NC=O)C(Cl)(Cl)Cl)ncn1 (stereo not drawn)	inactive: 5.14%
O=P(Nc1ccccn1)(c1cccc2ccccc12)c1cccc2ccccc12	inactive: -3.51%
O=[N+]([O-])c1ccc(Nc2ccc(Oc3ccc([N+](=O)[O-])cc3[N+](=O)[O-])cc2)c([N+](=O)[O-])c1	inactive: -0.322%
CCOC(=O)Nc1cccc([As](=O)(O)O)c1	inactive: 4.15%
Cc1cc(SC(NC(=O)c2ccccc2)C(Cl)(Cl)Cl)nc(C(C)C)n1 (stereo not drawn)	inactive: 4.58%
CCCCOc1ccc(C(=O)NCC2(N3CCCCC3)CCCCC2)cc1OC	inactive: 1.61%
CCOC(=O)Nc1ccc([As](=O)(O)O)c(O)c1	inactive: -2.3%
CCC(C)N(CC(C)C)C(=S)SC(NC(C)=O)C(Cl)(Cl)Cl (stereo not drawn)	inactive: -2.54%
O=C(OC1CN2CCC1CC2)c1cccc([N+](=O)[O-])c1 (stereo not drawn)	inactive: 2.6%
CCOC(=O)c1ccc(NC(=O)C(C)(CCl)SC)cc1 (stereo not drawn)	inactive: -5.31%
O=C(Nc1ccncc1[N+](=O)[O-])c1ccc([N+](=O)[O-])cc1[N+](=O)[O-]	inactive: -4.07%
O=C(COc1ccccc1)OC1CN2CCC1CC2 (stereo not drawn)	inactive: 3.1%
COP1(=S)c2c(C)nn(CCC#N)c2N=C(c2ccc(F)cc2)N1C (stereo not drawn)	inactive: -0.672%
